According to patent US11643437B2, “Tandem repeat cancer-targeting peptides for molecular conjugation or engineering and uses thereof in cancer theranostics” (Chang Gung Memorial Hospital, priority 2020, dated 2023):

Test system: BT-474 human breast carcinoma cells
Assay: BT-474 cell viability by RTCA
Assay type: cell-based
Details: amounts corresponding to 0.5 mg/ml and 1.25 mg/ml Herceptin, 3 days
Protocol: The ability of F4P6-TR-CTP-MNC-Herceptin to kill cancer cells was compared to that of MNC-Herceptin in HER-2/neu. Briefly, BT-474 human breast carcinoma cells, which overexpress HER2/neu, were seeded at 1×10^4 cells per well in a 96-well E-plate and cultured for one day. Wells were treated with vehicle, Herceptin alone, MNC-Herceptin, or F4P6-TR-CTP-MNC-Herceptin in amounts corresponding to 0.5 mg/ml and 1.25 mg/ml Herceptin. Cell viability was assessed after 3 days using RTCA as described in Example 6, supra.

trastuzumab [Herceptin]
cell survival (percent of vehicle control): did not inhibit survival
